Laboratory results as given in patent publication US9849134B2, “Method of improving cognition and social behavior in humans having deficits therein due to neurodegenerative disorders and compounds and compositions therefor” (The Board of Trustees of the Leland Stanford Junior …, priority 2014, dated 2017).
Structures can show the parent of a compound that is named as a salt. Where two headings read alike, the source gives them in different places.

By UniProt entry, the sequences of proteins in these tests, tags left out.
UniProt P18090, whole entry: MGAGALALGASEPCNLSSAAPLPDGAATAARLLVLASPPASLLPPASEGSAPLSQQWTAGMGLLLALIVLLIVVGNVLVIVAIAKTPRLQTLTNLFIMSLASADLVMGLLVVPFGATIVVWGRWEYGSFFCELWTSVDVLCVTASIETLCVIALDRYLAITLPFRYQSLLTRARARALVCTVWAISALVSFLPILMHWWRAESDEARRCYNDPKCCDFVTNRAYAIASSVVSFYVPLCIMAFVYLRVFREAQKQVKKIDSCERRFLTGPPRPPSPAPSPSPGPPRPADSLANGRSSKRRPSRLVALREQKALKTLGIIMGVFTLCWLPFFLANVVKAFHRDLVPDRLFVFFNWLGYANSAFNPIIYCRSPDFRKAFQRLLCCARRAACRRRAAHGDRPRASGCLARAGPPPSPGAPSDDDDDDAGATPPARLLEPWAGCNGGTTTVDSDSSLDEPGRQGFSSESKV

What was measured:
[1] = tested on: wild type mice; assay: Cardiac safety after chronic treatment in wild type mice; assay type: in vivo; details: 3 months, vs vehicle
[2] = mice, 3 mg/kg s.c.
[3] = molecular target: T1, β1-ADR (Rattus norvegicus, UniProt P18090); details: prolonged administration, rat ventricles; cited from earlier work
T1 construct: an animal study using rat ventricles; host or cells: rat ventricles (endogenous receptor)

## O=C(NCCNCC(O)COc1ccc(O)cc1)N1CCOCC1 (racemic) [xamoterol, 1-p-Hydroxyphenoxy-3-beta-(morpholinocarbonamido)ethyl-amino-2-propanol hydrogen fumarate]
[1]
  Left ventricular to right ventricular (LV/RV) ratio: did not show significant difference
[2]; 30 minutes
  P/B ratio: 1.1 ± 0.4
[2]; 1 hour
  P/B ratio: 0.4 ± 0.04
[2]; 2 hours
  P/B ratio: 0.04 ± 0.01
[3]
  β1-ADR density or adenylate cyclase coupling efficiency: did not induce reduction
